Measurements published in patent EP4834897A1, “COMPOUNDS WITH TWO AZAHETEROCYCLES SUBSTITUTED ISOINDOLINONE SKELETON AND USES THEREOF” (dated 2026).

Amino acid sequences for entries named in this document (tags omitted).
UniProt Q96SW2, whole entry: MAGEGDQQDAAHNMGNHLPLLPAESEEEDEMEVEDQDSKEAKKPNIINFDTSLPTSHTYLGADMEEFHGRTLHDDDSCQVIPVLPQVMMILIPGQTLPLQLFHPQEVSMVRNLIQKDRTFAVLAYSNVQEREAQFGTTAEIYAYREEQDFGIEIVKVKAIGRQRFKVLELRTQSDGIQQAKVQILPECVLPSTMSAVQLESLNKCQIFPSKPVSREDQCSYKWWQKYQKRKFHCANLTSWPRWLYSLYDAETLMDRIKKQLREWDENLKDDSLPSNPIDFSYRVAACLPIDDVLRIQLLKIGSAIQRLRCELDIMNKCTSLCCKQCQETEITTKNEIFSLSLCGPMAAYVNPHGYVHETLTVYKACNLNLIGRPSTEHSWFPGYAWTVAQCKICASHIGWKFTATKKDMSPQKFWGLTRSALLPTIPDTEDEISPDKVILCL
UniProt P15170, whole entry: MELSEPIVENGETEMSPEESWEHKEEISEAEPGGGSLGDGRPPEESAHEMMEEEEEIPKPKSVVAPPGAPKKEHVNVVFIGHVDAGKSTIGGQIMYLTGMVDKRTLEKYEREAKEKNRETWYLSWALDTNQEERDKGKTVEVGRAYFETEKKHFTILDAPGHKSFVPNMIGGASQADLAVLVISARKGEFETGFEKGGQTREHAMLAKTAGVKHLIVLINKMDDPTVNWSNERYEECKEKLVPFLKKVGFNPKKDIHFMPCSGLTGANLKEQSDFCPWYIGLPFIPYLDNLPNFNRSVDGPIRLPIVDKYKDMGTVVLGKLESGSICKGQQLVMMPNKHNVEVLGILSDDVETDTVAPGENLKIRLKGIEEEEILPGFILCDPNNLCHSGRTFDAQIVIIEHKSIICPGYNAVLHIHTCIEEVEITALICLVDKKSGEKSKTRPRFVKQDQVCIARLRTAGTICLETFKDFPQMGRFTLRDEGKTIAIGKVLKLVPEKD
UniProt Q9UKS7, whole entry: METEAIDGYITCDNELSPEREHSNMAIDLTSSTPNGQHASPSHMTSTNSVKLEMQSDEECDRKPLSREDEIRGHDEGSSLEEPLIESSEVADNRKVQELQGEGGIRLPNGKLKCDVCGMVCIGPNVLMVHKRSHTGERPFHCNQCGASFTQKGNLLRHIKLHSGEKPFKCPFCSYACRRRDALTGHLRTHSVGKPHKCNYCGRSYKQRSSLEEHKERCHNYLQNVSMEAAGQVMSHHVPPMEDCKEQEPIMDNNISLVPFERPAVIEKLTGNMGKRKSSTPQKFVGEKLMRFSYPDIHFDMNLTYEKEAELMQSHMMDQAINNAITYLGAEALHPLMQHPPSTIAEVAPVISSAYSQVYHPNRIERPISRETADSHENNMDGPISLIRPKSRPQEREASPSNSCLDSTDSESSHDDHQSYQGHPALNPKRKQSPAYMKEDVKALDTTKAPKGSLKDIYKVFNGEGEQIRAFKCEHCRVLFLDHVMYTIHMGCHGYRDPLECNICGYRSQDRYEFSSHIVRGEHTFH
UniProt P48729, whole entry: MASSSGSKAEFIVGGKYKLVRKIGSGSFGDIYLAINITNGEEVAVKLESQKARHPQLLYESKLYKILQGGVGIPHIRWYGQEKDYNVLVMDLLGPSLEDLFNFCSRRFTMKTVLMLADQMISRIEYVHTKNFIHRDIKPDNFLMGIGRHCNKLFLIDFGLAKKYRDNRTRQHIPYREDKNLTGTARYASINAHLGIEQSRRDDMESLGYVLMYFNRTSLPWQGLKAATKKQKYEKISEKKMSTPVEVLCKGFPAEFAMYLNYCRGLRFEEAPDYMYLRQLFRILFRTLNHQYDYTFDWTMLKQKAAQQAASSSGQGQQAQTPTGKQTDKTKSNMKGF
UniProt P30291, whole entry: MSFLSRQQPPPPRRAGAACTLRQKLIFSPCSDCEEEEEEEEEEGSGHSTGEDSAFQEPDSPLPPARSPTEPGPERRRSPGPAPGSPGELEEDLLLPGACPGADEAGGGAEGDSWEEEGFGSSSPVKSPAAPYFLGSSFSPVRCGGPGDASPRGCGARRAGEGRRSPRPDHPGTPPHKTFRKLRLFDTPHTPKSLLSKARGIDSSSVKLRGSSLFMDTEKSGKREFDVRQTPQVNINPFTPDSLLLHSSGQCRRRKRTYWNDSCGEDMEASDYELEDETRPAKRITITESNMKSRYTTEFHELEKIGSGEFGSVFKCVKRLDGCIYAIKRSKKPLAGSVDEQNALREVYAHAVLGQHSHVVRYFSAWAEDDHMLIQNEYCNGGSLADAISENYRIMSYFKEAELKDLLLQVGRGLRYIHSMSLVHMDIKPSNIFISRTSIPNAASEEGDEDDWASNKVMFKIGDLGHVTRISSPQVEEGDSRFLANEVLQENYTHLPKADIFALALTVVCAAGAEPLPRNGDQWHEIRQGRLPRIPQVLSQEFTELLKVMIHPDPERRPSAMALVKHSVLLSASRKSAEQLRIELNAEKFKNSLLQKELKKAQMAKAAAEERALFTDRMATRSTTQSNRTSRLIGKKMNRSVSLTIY
UniProt Q13422, whole entry: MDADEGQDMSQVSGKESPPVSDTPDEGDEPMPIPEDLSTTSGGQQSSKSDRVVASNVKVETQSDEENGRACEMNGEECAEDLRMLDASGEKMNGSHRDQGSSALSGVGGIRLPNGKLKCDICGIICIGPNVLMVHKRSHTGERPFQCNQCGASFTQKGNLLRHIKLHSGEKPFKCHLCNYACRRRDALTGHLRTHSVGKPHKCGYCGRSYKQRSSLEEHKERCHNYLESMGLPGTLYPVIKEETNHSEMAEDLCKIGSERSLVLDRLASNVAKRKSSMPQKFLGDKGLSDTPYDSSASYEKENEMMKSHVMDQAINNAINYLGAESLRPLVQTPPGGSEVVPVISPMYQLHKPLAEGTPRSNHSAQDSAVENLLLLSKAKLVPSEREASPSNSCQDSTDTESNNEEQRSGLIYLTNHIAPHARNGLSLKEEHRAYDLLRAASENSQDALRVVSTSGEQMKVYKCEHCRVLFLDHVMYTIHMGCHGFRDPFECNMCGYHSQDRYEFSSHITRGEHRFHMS
UniProt Q9UKT9, whole entry: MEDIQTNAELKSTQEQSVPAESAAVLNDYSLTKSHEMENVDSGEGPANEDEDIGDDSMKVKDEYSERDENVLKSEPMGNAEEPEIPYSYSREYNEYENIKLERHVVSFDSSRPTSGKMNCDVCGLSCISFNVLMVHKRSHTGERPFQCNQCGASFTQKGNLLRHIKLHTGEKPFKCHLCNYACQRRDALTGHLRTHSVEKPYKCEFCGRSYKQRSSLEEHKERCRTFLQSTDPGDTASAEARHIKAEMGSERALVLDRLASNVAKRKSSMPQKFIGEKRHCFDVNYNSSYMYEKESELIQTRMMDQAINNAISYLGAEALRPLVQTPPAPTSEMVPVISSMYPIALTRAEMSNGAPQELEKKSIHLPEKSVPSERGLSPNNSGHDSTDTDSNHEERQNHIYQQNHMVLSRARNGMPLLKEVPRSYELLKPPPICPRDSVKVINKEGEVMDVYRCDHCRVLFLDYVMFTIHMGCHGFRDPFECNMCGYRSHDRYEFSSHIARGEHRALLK
UniProt Q16531, whole entry partner: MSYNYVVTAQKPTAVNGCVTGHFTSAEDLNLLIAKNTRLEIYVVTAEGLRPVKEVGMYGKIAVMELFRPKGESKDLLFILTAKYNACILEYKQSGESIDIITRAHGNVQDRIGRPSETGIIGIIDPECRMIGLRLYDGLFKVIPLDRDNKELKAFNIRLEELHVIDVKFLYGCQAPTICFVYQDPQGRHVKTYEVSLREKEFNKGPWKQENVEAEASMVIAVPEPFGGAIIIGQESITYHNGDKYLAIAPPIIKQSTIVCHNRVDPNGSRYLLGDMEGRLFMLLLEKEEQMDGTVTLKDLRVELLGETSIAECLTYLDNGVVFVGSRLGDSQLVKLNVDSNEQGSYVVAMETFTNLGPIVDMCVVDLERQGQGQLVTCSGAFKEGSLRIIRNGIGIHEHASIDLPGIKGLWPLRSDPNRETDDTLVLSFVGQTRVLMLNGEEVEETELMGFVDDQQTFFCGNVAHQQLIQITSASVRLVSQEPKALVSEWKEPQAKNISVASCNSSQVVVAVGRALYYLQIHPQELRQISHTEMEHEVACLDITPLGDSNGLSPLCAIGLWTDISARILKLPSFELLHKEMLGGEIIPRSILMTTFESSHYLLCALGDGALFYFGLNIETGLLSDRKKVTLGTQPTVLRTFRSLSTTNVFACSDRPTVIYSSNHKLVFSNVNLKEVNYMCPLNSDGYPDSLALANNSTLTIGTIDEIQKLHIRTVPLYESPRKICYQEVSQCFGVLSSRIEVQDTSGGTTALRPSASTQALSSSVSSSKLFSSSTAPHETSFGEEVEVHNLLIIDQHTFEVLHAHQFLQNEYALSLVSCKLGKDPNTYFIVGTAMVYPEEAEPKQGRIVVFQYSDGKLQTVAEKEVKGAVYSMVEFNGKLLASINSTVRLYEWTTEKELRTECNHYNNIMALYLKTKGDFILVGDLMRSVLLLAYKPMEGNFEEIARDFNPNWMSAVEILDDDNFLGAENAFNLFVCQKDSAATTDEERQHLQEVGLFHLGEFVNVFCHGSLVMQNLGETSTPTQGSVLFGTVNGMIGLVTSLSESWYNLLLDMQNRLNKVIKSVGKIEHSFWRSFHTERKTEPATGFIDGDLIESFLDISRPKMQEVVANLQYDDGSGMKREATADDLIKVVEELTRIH

The compounds below were run on IL-2 (assay: Inflammatory cytokine release from PBMCs induced by PHA (flow cytometry CBA)). Settings: 0.1 µM; PBMCs, PHA 1 µg/mL, 24 h.

**Q.** How did the “Inhibition Rate (%) IL-2” value turn out when CC1(C)CCC(C(=O)N2CCN(C3CCN(Cc4cccc5c4C(=O)N(C4CCC(=O)NC4=O)C5)CC3(F)F)CC2)=C(c2ccc(Cl)cc2)C1 (centres unmarked) was run?
**A.** IV9 (40% < IV9 ≤ 50%)

**Q.** With O=C1CCC(N2C(=O)c3ccc(CN4CCC(N5CCN(C(c6ccccc6)c6ccccn6)CC5)C(F)(F)C4)cc3C2=O)C(=O)N1 (centres unmarked) as the compound, how does the “Inhibition Rate (%) IL-2” value read?
**A.** IV8 (30% < IV8 ≤ 40%)

**Q.** O=C1CCC(N2Cc3ccc(CN4CCC(N5CCN(c6cccc(Cl)c6Cl)CC5)C(F)(F)C4)cc3C2=O)C(=O)N1 (centres unmarked) was tested. Which “Inhibition Rate (%) IL-2” value did it give?
**A.** IV9 (40% < IV9 ≤ 50%)

Same assay, conditions: 1 µM; PBMCs, PHA 1 µg/mL, 24 h

**Q.** How did the “Inhibition Rate (%) IL-2” value turn out when CC1(C)CCC(C(=O)N2CCN(C3CCN(Cc4cccc5c4C(=O)N(C4CCC(=O)NC4=O)C5)CC3(F)F)CC2)=C(c2ccc(Cl)cc2)C1 (centres unmarked) was run?
**A.** IV9 (40% < IV9 ≤ 50%)

**Q.** O=C1CCC(N2C(=O)c3ccc(CN4CCC(N5CCN(C(c6ccccc6)c6ccccn6)CC5)C(F)(F)C4)cc3C2=O)C(=O)N1 (centres unmarked) was tested. Which “Inhibition Rate (%) IL-2” value did it give?
**A.** IV9 (40% < IV9 ≤ 50%)

**Q.** O=C1CCC(N2Cc3ccc(CN4CCC(N5CCN(c6cccc(Cl)c6Cl)CC5)C(F)(F)C4)cc3C2=O)C(=O)N1 (centres unmarked) was tested. Which “Inhibition Rate (%) IL-2” value did it give?
**A.** IV9 (40% < IV9 ≤ 50%)

What follows are compounds tested against CRBN (Homo sapiens, UniProt Q96SW2) (assay: CRBN binding affinity by HTRF (CEREBLON BINDING kit)). Settings: CRBN binding, HTRF, compound at 0.5 µM.

**Q.** Which “Inhibition Rate at 0.5 µM (%)” value does the source give for CC1(C)CCC(C(=O)N2CCN(C3CCN(Cc4cccc5c4C(=O)N(C4CCC(=O)NC4=O)C5)CC3(F)F)CC2)=C(c2ccc(Cl)cc2)C1 (centres unmarked) here?
**A.** a3 (30% < a3 ≤ 40%)

Same assay, conditions: CRBN binding, HTRF, compound at 2 µM

**Q.** CC1(C)CCC(C(=O)N2CCN(C3CCN(Cc4cccc5c4C(=O)N(C4CCC(=O)NC4=O)C5)CC3(F)F)CC2)=C(c2ccc(Cl)cc2)C1 (centres unmarked) was tested. Which “Inhibition Rate at 2 µM (%)” value did it give?
**A.** a8 (80% < a8 ≤100%)

Each compound was assayed against GSPT1 (Homo sapiens, UniProt P15170+Q96SW2) (assay: Western blot assay of substrate protein degradation in hPBMCs). Settings: 24 hours treatment, compounds at 50 nM and 500 nM (concentration behind the class not stated).

**Q.** How did the “substrate protein remaining % (GSPT1)” value turn out when CC1(C)CCC(C(=O)N2CCN(C3CCN(Cc4cccc5c4C(=O)N(C4CCC(=O)NC4=O)C5)CC3(F)F)CC2)=C(c2ccc(Cl)cc2)C1 (centres unmarked) was run?
**A.** A (0% ≤ substrate protein remaining % ≤ 80%)

**Q.** For O=C1CCC(N2C(=O)c3ccc(CN4CCC(N5CCN(C(c6ccccc6)c6ccccn6)CC5)C(F)(F)C4)cc3C2=O)C(=O)N1 (centres unmarked), which “substrate protein remaining % (GSPT1)” value is on record?
**A.** A (0% ≤ substrate protein remaining % ≤ 80%)

The compounds below were run against IKZF2 (Homo sapiens, UniProt Q96SW2+Q9UKS7) in the same assay as above. Settings: 24 hours treatment, compounds at 50 nM and 500 nM (concentration behind the class not stated).

**Q.** How did the “substrate protein remaining % (IKZF2)” value turn out when CC1(C)CCC(C(=O)N2CCN(C3CCN(Cc4cccc5c4C(=O)N(C4CCC(=O)NC4=O)C5)CC3(F)F)CC2)=C(c2ccc(Cl)cc2)C1 (centres unmarked) was run?
**A.** B (80%< substrate protein remaining %≤ 100%)

**Q.** For O=C1CCC(N2C(=O)c3ccc(CN4CCC(N5CCN(C(c6ccccc6)c6ccccn6)CC5)C(F)(F)C4)cc3C2=O)C(=O)N1 (centres unmarked), which “substrate protein remaining % (IKZF2)” value is on record?
**A.** B (80%< substrate protein remaining %≤ 100%)

These compounds were tested against CK1α (Homo sapiens, UniProt P48729+Q96SW2) in the same assay as above. Settings: 24 hours treatment, compounds at 50 nM and 500 nM (concentration behind the class not stated).

**Q.** How did the “substrate protein remaining % (CK1a)” value turn out when CC1(C)CCC(C(=O)N2CCN(C3CCN(Cc4cccc5c4C(=O)N(C4CCC(=O)NC4=O)C5)CC3(F)F)CC2)=C(c2ccc(Cl)cc2)C1 (centres unmarked) was run?
**A.** B (80%< substrate protein remaining %≤ 100%)

**Q.** For O=C1CCC(N2C(=O)c3ccc(CN4CCC(N5CCN(C(c6ccccc6)c6ccccn6)CC5)C(F)(F)C4)cc3C2=O)C(=O)N1 (centres unmarked), which “substrate protein remaining % (CK1a)” value is on record?
**A.** B (80%< substrate protein remaining %≤ 100%)

What follows are compounds tested against WEE1 (Homo sapiens, UniProt P30291+Q96SW2) in the same assay as above. Settings: 24 hours treatment, compounds at 50 nM and 500 nM (concentration behind the class not stated).

**Q.** CC1(C)CCC(C(=O)N2CCN(C3CCN(Cc4cccc5c4C(=O)N(C4CCC(=O)NC4=O)C5)CC3(F)F)CC2)=C(c2ccc(Cl)cc2)C1 (centres unmarked) was tested. Which “substrate protein remaining % (WEE1)” value did it give?
**A.** B (80%< substrate protein remaining %≤ 100%)

**Q.** How did the “substrate protein remaining % (WEE1)” value turn out when O=C1CCC(N2C(=O)c3ccc(CN4CCC(N5CCN(C(c6ccccc6)c6ccccn6)CC5)C(F)(F)C4)cc3C2=O)C(=O)N1 (centres unmarked) was run?
**A.** B (80%< substrate protein remaining %≤ 100%)

Each compound was assayed against IKZF1 (Homo sapiens, UniProt Q13422+Q96SW2) in the same assay as above. Settings: 24 hours treatment, compounds at 50 nM and 500 nM (concentration behind the class not stated).

**Q.** With CC1(C)CCC(C(=O)N2CCN(C3CCN(Cc4cccc5c4C(=O)N(C4CCC(=O)NC4=O)C5)CC3(F)F)CC2)=C(c2ccc(Cl)cc2)C1 (centres unmarked) as the compound, how does the “substrate protein remaining % (IKZF 1)” value read?
**A.** B (80%< substrate protein remaining %≤ 100%)

**Q.** Which “substrate protein remaining % (IKZF 1)” value does the source give for O=C1CCC(N2C(=O)c3ccc(CN4CCC(N5CCN(C(c6ccccc6)c6ccccn6)CC5)C(F)(F)C4)cc3C2=O)C(=O)N1 (centres unmarked) here?
**A.** B (80%< substrate protein remaining %≤ 100%)

What follows are compounds tested against IKZF3 (Homo sapiens, UniProt Q96SW2+Q9UKT9) in the same assay as above. Settings: 24 hours treatment, compounds at 50 nM and 500 nM (concentration behind the class not stated).

**Q.** CC1(C)CCC(C(=O)N2CCN(C3CCN(Cc4cccc5c4C(=O)N(C4CCC(=O)NC4=O)C5)CC3(F)F)CC2)=C(c2ccc(Cl)cc2)C1 (centres unmarked) was tested. Which “substrate protein remaining % (IKZF3)” value did it give?
**A.** B (80%< substrate protein remaining %≤ 100%)

**Q.** With O=C1CCC(N2C(=O)c3ccc(CN4CCC(N5CCN(C(c6ccccc6)c6ccccn6)CC5)C(F)(F)C4)cc3C2=O)C(=O)N1 (centres unmarked) as the compound, how does the “substrate protein remaining % (IKZF3)” value read?
**A.** B (80%< substrate protein remaining %≤ 100%)

What follows are compounds tested on GM-CSF (assay: Inflammatory cytokine release from PBMCs induced by PMA + Ionomycin (flow cytometry CBA)). Settings: 0.1 µM, 24 h.

**Q.** With CC1(C)CCC(C(=O)N2CCN(C3CCN(Cc4cccc5c4C(=O)N(C4CCC(=O)NC4=O)C5)CC3(F)F)CC2)=C(c2ccc(Cl)cc2)C1 (centres unmarked) as the compound, how does the “Inhibition Rate (%) GM-CSF” value read?
**A.** IV9 (40% < IV9 ≤ 50%)

**Q.** For O=C1CCC(N2C(=O)c3ccc(CN4CCC(N5CCN(C(c6ccccc6)c6ccccn6)CC5)C(F)(F)C4)cc3C2=O)C(=O)N1 (centres unmarked), which “Inhibition Rate (%) GM-CSF” value is on record?
**A.** IV8 (30% < IV8 ≤ 40%)

**Q.** O=C1CCC(N2Cc3ccc(CN4CCC(N5CCN(c6cccc(Cl)c6Cl)CC5)C(F)(F)C4)cc3C2=O)C(=O)N1 (centres unmarked) was tested. Which “Inhibition Rate (%) GM-CSF” value did it give?
**A.** IV9 (40% < IV9 ≤ 50%)

Same assay, conditions: 1 µM, 24 h

**Q.** How did the “Inhibition Rate (%) GM-CSF” value turn out when CC1(C)CCC(C(=O)N2CCN(C3CCN(Cc4cccc5c4C(=O)N(C4CCC(=O)NC4=O)C5)CC3(F)F)CC2)=C(c2ccc(Cl)cc2)C1 (centres unmarked) was run?
**A.** IV9 (40% < IV9 ≤ 50%)

**Q.** How did the “Inhibition Rate (%) GM-CSF” value turn out when O=C1CCC(N2C(=O)c3ccc(CN4CCC(N5CCN(C(c6ccccc6)c6ccccn6)CC5)C(F)(F)C4)cc3C2=O)C(=O)N1 (centres unmarked) was run?
**A.** IV9 (40% < IV9 ≤ 50%)

**Q.** For O=C1CCC(N2Cc3ccc(CN4CCC(N5CCN(c6cccc(Cl)c6Cl)CC5)C(F)(F)C4)cc3C2=O)C(=O)N1 (centres unmarked), which “Inhibition Rate (%) GM-CSF” value is on record?
**A.** IV9 (40% < IV9 ≤ 50%)
